Here are results for one compound from ChEMBL document CHEMBL4184231, “Selective inhibition of monoamine oxidase A by hispidol” (Bioorg Med Chem Lett, 2018).

The chains behind the UniProt entries cited, without tags or fusion partners.
UniProt P27338, whole entry: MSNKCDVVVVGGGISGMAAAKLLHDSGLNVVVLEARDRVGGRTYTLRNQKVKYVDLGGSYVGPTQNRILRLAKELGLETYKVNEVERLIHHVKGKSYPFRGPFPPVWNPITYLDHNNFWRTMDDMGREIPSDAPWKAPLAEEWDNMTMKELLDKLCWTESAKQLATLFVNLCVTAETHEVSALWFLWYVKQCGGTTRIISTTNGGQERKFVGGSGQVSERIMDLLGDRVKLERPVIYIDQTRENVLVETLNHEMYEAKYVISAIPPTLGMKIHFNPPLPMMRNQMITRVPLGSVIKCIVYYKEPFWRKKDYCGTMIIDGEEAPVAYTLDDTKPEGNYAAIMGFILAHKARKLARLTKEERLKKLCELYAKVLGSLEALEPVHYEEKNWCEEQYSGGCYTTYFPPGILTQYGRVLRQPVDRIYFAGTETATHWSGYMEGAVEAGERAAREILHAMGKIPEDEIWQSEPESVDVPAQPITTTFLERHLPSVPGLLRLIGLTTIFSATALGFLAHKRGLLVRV

The data set deals with Amine oxidase [flavin-containing] B (Homo sapiens, UniProt P27338). As to the kind of experiment: Inhibition of human recombinant MAOB assessed as residual enzyme activity at 2 time IC50 pre-incubated for 30 mins followed by 0.06 mM benzylamine substrate addition.

For the compound `C#CCN(C)Cc1ccccc1` [PARGYLINE], the Activity amounted to 17.4%.
